# Results: PubChem BioAssay AID1239 (SRMLSC, 2008)
# This is a selection; strong and weak results do not stand in their true shares. Activity calls are given as the source filed them. No stated cut-off is given here; in the data, active means fold change above about 3.3; inconclusive means no clear call, values can overlap the other calls; inactive means below that.
# Experiment: NF-kB upregulation, human neuronal cells – cell-based, HTS, primary screen (AID 1239)
# Settings: NF-kB reporter expression, at 12.5 µM, stronger effect = higher value
row,SMILES,fold change
1,CP(=S)(Nn1cnnc1)Oc1ccccc1 (centres undefined),inactive: 1.12
2,COc1ccccc1OP(C)(=O)Nc1ccccc1 (centres undefined),inactive: 1.1
3,CP(=O)(Nc1ccccc1Br)Oc1ccccc1 (centres undefined),inactive: 1.02
4,CCOP(C)(=S)SCC(=O)NC(C)C(=O)O (centres undefined),inactive: 1.34
5,CCOC(=O)c1ccc(NP(C)(=O)Oc2ccc(OC)cc2)cc1 (centres undefined),inactive: 1
6,CP(=O)(Nc1ccccn1)Oc1ccc(Cl)cc1 (centres undefined),inactive: 0.94
7,CP(=O)(Oc1ccccc1)OC(c1ccccc1)C(F)(F)F (centres undefined),inactive: 1.04
8,Cc1cccc(C)c1OP(C)(=O)Nc1ccc(SC(F)(F)F)cc1 (centres undefined),inactive: 0.79
9,Cc1cc(C)cc(OP(C)(=O)Nc2ccc(SC(F)(F)F)cc2)c1 (centres undefined),inactive: 1.32
10,CP(=O)(NC(=O)Nc1ccccc1)Oc1ccccc1 (centres undefined),inactive: 1.15
11,CCN(CC)CCCOC(=O)C(O)(c1ccccc1)c1ccccc1,inactive: 1.02
12,CCOC(=O)c1ccc(NP(C)(=O)Oc2ccccc2)cc1 (centres undefined),inactive: 1.01
13,Cc1ccc(NP(C)(=O)Oc2ccccc2)c(C)c1 (centres undefined),inactive: 1.21
14,COc1ccccc1OP(C)(=O)Nc1ccc(C)cc1 (centres undefined),inactive: 1.13
15,COc1ccc(OP(C)(=O)Nc2cccc(F)c2)cc1 (centres undefined),inactive: 1.16
16,COc1ccccc1OP(C)(=O)Nc1cc(Cl)ccc1C (centres undefined),inactive: 1.15
17,Cc1cc(C)cc(OP(C)(N)=O)c1 (centres undefined),inactive: 1.35
18,Cc1cccc(C)c1OP(C)(N)=O (centres undefined),inactive: 1.21
19,CC(C)(C)c1ccc(OP(C)(=O)Nc2ccc(SC(F)(F)F)cc2)cc1 (centres undefined),inactive: 1.21
20,O=[N+]([O-])c1ccc2c(c1)C=Nc1ccccc1O2,inactive: 2.37
21,CC1=NCCc2c1[nH]c1ccccc21.O=[N+]([O-])c1cc([N+](=O)[O-])c(O)c([N+](=O)[O-])c1,inactive: 1.13
22,CP(=O)(Nc1cccc(Br)c1)Oc1ccccc1 (centres undefined),inactive: 1.19
23,Cc1cc(C)cc(OP(C)(=O)Nc2ccccn2)c1 (centres undefined),inactive: 1

row,SMILES,fold change
1,Cc1ccc(C)c(NP(C)(=O)Oc2ccccc2)c1 (centres undefined),inactive: 1.04
2,Cc1cc(C)cc(OP(C)(=O)Nc2ccc(C)cc2C)c1 (centres undefined),inactive: 0.99
3,CCOC(=O)c1ccc(NP(C)(=O)Oc2cc(C)cc(C)c2)cc1 (centres undefined),inactive: 1.31
4,Cc1nc2ccc3ccccc3c2s1.O=[N+]([O-])c1cc([N+](=O)[O-])c(O)c([N+](=O)[O-])c1,inactive: 1.3
5,O=[N+]([O-])c1cc([N+](=O)[O-])c(-n2nnc3ccccc32)c([N+](=O)[O-])c1,inactive: 0.95
6,CN1CCCCC1COC(=O)C1(O)c2ccccc2CCc2ccccc21 (centres undefined),inactive: 1.04
7,COc1ccccc1OP(C)(=O)Nc1c(C)cccc1C (centres undefined),inactive: 1.15
8,CP(=O)(Nc1ccc(SC(F)(F)F)cc1)Oc1ccccc1 (centres undefined),inactive: 1.16
9,CCCOc1ccc(NP(C)(=O)Oc2ccc(Cl)cc2)cc1 (centres undefined),inactive: 1.01
10,O=[N+]([O-])c1cc([N+](=O)[O-])c(NCC2CCS(=O)(=O)C2)c([N+](=O)[O-])c1 (centres undefined),inactive: 1.05
11,COc1ccc(OP(C)(=O)Nc2cccc(Br)c2)cc1 (centres undefined),inactive: 0.94
12,COc1ccc(NP(C)(=O)Oc2ccccc2OC)cc1 (centres undefined),inactive: 1.33
13,CN(C)CCOC(=O)C(O)(c1ccccc1)C1CCCCC1 (centres undefined),inactive: 1.05
14,CP(=O)(Nc1ccc2c(c1)OCCO2)Oc1ccccc1 (centres undefined),inactive: 0.83
15,Cc1ccccc1NP(C)(=O)Nc1ccccc1C,inactive: 1.26
16,CCOP(C)(=S)SCC(=O)NC(C)(CC)C(=O)O (centres undefined),inactive: 1.53
17,O=C(OCCN1CCN(CCOCc2ccccc2)CC1)C(O)(c1ccccc1)c1ccccc1,inactive: 1.13
18,CC(C)c1ccc(OP(C)(=O)Nc2ccc(SC(F)(F)F)cc2)cc1 (centres undefined),inactive: 1.26
19,CP(=O)(Nc1ccccc1F)Oc1ccccc1 (centres undefined),inactive: 1.12
20,CCN(CC)CCCOC(=O)C(O)(c1ccccc1)C1CCCCC1 (centres undefined),inactive: 1.07
21,CP(=O)(Nc1ccccc1)Oc1ccc(F)cc1 (centres undefined),inactive: 1.17
22,COc1ccc(OP(C)(=O)Nc2ccc(SC(F)(F)F)cc2)cc1 (centres undefined),inactive: 0.85
23,CCOC(=O)c1ccc(NP(C)(=O)Oc2ccc(F)cc2)cc1 (centres undefined),inactive: 1.39

row,SMILES,fold change
1,Cc1nc2ccc3ccccc3c2o1.O=[N+]([O-])c1cc([N+](=O)[O-])c(O)c([N+](=O)[O-])c1,inactive: 1.87
2,CP(=O)(OCCOc1ccccc1)OCCOc1ccccc1,inactive: 1.04
3,CP(=O)(Nc1ccc(Cl)cc1Cl)Oc1ccccc1 (centres undefined),inactive: 1.27
4,Cc1cc(C)cc(OP(C)(=O)Nc2cccc(C(F)(F)F)c2)c1 (centres undefined),inactive: 1.08
5,COc1ccc(OP(C)(=O)Nc2ccccc2Br)cc1 (centres undefined),inactive: 1.15
6,COc1ccccc1OP(C)(=O)Nc1ccc(C)c(C)c1 (centres undefined),inactive: 1.14
7,O=[N+]([O-])c1cc([N+](=O)[O-])c(Nc2ccccn2)c([N+](=O)[O-])c1,inactive: 0.48
8,Cc1c(NP(C)(=O)Oc2ccc(C(C)C)cc2)c(=O)n(-c2ccccc2)n1C (centres undefined),inactive: 1.07
9,CCc1ccc(OP(C)(=O)O)cc1,inactive: 1.12
10,COc1ccccc1OP(C)(=O)Nc1ccc(C)cc1C (centres undefined),inactive: 0.88
11,CP(=O)(Nc1ccccn1)Oc1ccccc1 (centres undefined),inactive: 1.31
12,CN(C)CCOC(=O)C(O)(c1ccccc1)C1CCCC1 (centres undefined),inactive: 1.04
13,COc1ccc(OP(C)(=O)Nc2ccccn2)cc1 (centres undefined),inactive: 0.99
14,CP(=O)(Nc1ccc(Cl)cc1)Oc1ccc(F)cc1 (centres undefined),inactive: 1.2
15,CC(C)(C)c1ccc(OP(C)(=O)O)cc1,inactive: 0.88
16,COc1ccccc1OP(C)(=O)Nc1ccccc1Br (centres undefined),inactive: 1.04
17,CN(C)C(=O)c1c([N+](=O)[O-])cc([N+](=O)[O-])cc1[N+](=O)[O-],inactive: 0.53
18,COc1ccc(OP(C)(=O)Nc2ccc(Br)cc2)cc1 (centres undefined),inactive: 1.19
19,CCN(CC)CC(O)COC(=O)C(O)(c1ccccc1)C1CCCCC1 (centres undefined),inactive: 1.05
20,CCc1ccc(OP(C)(=O)Nc2cccnc2)cc1 (centres undefined),inactive: 1.09
21,CP(=O)(Oc1ccccc1)N1CCOC1=O (centres undefined),inactive: 1.34
22,CP(=O)(OC12CC3CC(CC(C3)C1)C2)OC12CC3CC(CC(C3)C1)C2,inactive: 0.9
23,CCOC(=O)c1ccc(NP(C)(=O)Oc2ccc(Cl)cc2)cc1 (centres undefined),inactive: 1.24
